This passage reports inhibition results from PubChem BioAssay AID797 (University of Pittsburgh Molecular Library Screening Center, 2007).

Sequences of proteins named here, by UniProt entry; tags and fusion partners are left off.
UniProt Q15139, whole entry: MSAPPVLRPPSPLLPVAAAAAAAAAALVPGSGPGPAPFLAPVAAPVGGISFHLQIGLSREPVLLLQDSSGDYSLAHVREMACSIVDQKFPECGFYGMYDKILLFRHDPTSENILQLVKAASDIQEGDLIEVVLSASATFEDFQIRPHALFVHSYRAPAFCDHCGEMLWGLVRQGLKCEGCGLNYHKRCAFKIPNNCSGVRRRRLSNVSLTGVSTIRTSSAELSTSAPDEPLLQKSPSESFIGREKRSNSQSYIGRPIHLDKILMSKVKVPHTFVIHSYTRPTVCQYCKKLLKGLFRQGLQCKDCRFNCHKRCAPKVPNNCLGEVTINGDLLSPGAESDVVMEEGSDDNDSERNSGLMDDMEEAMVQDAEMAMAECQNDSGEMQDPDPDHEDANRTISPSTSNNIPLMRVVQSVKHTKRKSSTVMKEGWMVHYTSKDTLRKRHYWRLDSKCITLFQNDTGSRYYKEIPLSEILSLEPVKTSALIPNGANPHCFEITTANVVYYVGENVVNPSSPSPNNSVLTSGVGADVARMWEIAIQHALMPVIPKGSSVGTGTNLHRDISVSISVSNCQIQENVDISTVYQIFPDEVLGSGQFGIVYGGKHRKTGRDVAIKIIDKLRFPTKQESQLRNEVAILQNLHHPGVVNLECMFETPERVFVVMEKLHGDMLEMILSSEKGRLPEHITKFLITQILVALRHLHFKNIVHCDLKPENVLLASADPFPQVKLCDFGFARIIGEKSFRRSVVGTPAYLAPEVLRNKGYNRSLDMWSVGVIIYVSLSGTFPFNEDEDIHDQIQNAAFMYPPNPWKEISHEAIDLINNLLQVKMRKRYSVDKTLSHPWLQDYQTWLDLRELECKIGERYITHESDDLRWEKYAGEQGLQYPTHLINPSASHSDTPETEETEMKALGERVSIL

SMILES strings stand for the structures. The list shows a part of the results, in another mix than the full data. Active and inactive are the calls of the source. No stated cut-off is given here; in the data, active means inhibition above about 50%; inactive means the rest.

The test addresses Serine/threonine-protein kinase D1 (Homo sapiens) (UniProt Q15139). Briefly: protein kinase D1 activity blockers – biochemical, fluorescence polarization (AID 797). The settings on record: PKD1 kinase fluorescence polarization assay; stronger effect = higher value; concentration not given here. (In fluorescence polarisation assays a small probe gives low polarisation when free and higher when bound to something large.)
`COc1ccc(C(=O)NCC2(N3CCOCC3)CCCCC2)cc1OC`: the inhibition was inactive: 4.68%.

Take `N/C(=N\O)c1c(N)no[n+]1[O-]`: the inhibition is inactive: -14.7%.

For the molecule `O=C(OC1CN2CCC1CC2)C1c2ccccc2C=Cc2ccccc21` (stereo not given), the inhibition is inactive: -13.8%.

For `N#Cc1ccc(C(=O)NCC2(N3CCCCC3)CCCCC2)cc1`, the inhibition is inactive: -7.25%.

Regarding `c1ccc(CN2CCC(Nc3ccccc3)CC2)cc1`, the inhibition was inactive: -2.46%.

For `CCN1CCC(Nc2cccc(F)c2)CC1`, the inhibition is inactive: -10.3%.

Regarding `CN(C)c1ccc(C(=O)NCC2(N3CCCCC3)CCCCC2)cc1`, the inhibition is inactive: -10.3%.

Consider `CCOc1ncccc1C(=O)NCC1(N2CCOCC2)CCCCC1`, for which the inhibition is inactive: -10.3%.

Turning to `CC(C)(C)OC(=O)N1CCC(Nc2ccccc2)CC1`, the inhibition was inactive: -3.31%.

Consider `COc1cc(OC)cc(C(=O)NCC2(N3CCOCC3)CCCCC2)c1`, for which the inhibition is inactive: -8.36%.

Take `CCC(CO)(C(=O)OC1CN2CCC1CC2)c1ccccc1` (stereo not given): the inhibition was inactive: -7.01%.

With `COc1ccc(C(=O)NCC2(N3CCCCC3)CCCCC2)c(OC)c1OC`, the inhibition was inactive: 0.31%.

As to `O=C(NCC1(N2CCOCC2)CCCCC1)c1cc2ccccc2o1`, the inhibition is inactive: -6.27%.

Consider `O=C(OC1CN2CCC1CC2)C1c2ccccc2Oc2ccccc21` (stereo not given), for which the inhibition is inactive: -1.06%.

As to `CCOC(=O)N1CCC(Nc2ccc(OC)cc2)CC1`, the inhibition was inactive: -0.54%.

For `COc1ccc(NC2CCN(CCc3ccccc3)CC2)c(OC)c1`, the inhibition is inactive: 1.48%.

`N#CC1(Nc2ccccc2)CCN(CCc2ccccc2)CC1`: the inhibition was inactive: 9.42%.

For `O=C(NCC1(N2CCCCC2)CCCCC1)c1cccc([N+](=O)[O-])c1`, the inhibition was inactive: -1.56%.

Regarding `O=C(NCC1(N2CCOCC2)CCCCC1)c1cc(=O)[nH]c2ccccc12`, the inhibition is inactive: -7.75%.

As for `COc1ccc(NC2CCN(C(=O)OC(C)(C)C)CC2)cc1`, the inhibition is inactive: -6.58%.

On to `CN1CCN(CCOC(=O)C(O)(c2ccccc2)c2ccccc2)CC1`, for which the inhibition was inactive: -9.08%.

In the case of `CC(C)c1ccc(NC2CCN(C(=O)OC(C)(C)C)CC2)cc1`, the inhibition was inactive: -4.04%.

For the molecule `CN(C)c1cccc(C(=O)NCC2(N3CCCCC3)CCCCC2)c1`, the inhibition is inactive: 0.26%.

As for `COc1ccc(CN(CCCl)CCCl)cc1Cl`, the inhibition was inactive: -3.12%.

For the molecule `CN1CCC(Nc2cccc(F)c2)CC1`, the inhibition was inactive: 5.38%.

As a reminder, the inhibition is the change of the read-out against control, counted positive when it falls.
